Data from patent US6936585B2, “Corticotropin releasing factor 2 receptor agonists” (priority 2002, dated 2005).

Columns and labels:
[1] = target: T1, CRF1R (Homo sapiens, UniProt P34998); assay: CRF1R agonist activation (EC50 / Emax), called comparative CRF binding; assay type: cell-based; conditions: for Emax: read-out: CRF1R Emax
T1 sequence (P34998 24-415): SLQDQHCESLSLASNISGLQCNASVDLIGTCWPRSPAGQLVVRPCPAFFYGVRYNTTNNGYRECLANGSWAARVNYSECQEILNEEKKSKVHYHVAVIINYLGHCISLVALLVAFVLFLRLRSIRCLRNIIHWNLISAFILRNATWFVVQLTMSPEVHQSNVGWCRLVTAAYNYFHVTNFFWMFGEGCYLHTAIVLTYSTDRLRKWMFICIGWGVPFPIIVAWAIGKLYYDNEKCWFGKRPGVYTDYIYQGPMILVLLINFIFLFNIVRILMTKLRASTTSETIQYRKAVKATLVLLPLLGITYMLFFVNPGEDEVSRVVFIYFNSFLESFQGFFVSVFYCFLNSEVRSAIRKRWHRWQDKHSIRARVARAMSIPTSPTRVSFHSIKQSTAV
In short: (§1)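 Cells expressing full-length human CRF1R or CRF2R were exposed to peptide or vehicle control, and receptor activation was gauged as cAMP induction. cAMP was measured in cell lysates or via a cAMP-responsive element driving a reporter gene such as luciferase, CAT, GFP or alkaline phosphatase.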

[2] = target: T2, CRF2R (Homo sapiens, UniProt Q13324); assay: CRF2R agonist activation (EC50 / Emax), called comparative CRF binding; assay type: cell-based; conditions: for Emax: read-out: CRF2R Emax
T2 sequence (Q13324 1-411): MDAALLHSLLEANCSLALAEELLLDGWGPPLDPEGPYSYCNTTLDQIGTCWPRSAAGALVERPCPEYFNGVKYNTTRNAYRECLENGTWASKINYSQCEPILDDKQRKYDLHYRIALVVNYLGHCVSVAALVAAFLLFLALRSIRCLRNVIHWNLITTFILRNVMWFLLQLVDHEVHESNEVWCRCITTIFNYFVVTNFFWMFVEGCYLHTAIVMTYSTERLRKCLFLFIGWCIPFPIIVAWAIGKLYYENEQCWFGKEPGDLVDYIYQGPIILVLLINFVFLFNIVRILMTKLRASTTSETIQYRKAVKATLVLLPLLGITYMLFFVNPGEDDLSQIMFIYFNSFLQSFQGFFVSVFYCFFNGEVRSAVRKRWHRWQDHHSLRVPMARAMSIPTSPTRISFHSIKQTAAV
In short: as §1

## CC[C@H](C)[C@H](NC(=O)[C@@H](NC(=O)[C@H](CC(=O)O)NC(=O)[C@H](CC(C)C)NC(=O)[C@H](CC(C)C)NC(=O)[C@H](CC(C)C)NC(=O)[C@H](C)NC(=O)[C@H](CC(N)=O)NC(=O)[C@H](CC(N)=O)NC(=O)[C@H](C)NC(=O)[C@H](C)NC(=O)[C@H](CCC(N)=O)NC(=O)[C@H](CCC(N)=O)NC(=O)[C@H](CCCCN)NC(=O)[C@H](CCC(=O)O)NC(=O)[C@H](CCCCN)NC(=O)[C@H](CCC(=O)O)NC(=O)[C@H](CCC(N)=O)NC(=O)[C@H](CCCCN)NC(=O)[C@H](CCC(=O)O)NC(=O)[C@@H](NC(=O)[C@H](CCC(=O)O)NC(=O)[C@@H](NC(=O)[C@H](CCSC)NC(=O)[C@H](CCCCN)NC(=O)[C@H](CCCNC(=N)N)NC(=O)[C@H](CC(C)C)NC(=O)[C@H](CC(C)C)NC(=O)[C@H](Cc1ccccc1)NC(=O)[C@H](Cc1ccccc1)NC(=O)[C@@H]1CCCN1C(=O)[C@H](CC(C)C)NC(=O)[C@H](CC(=O)O)NC(=O)[C@@H](NC(=O)[C@H](CO)NC(=O)[C@@H](NC(=O)[C@@H]1CCCN1C(=O)[C@@H]1CCCN1C(=O)CNC(=O)[C@@H]1CCC(=O)N1)[C@@H](C)CC)[C@@H](C)CC)[C@@H](C)CC)[C@@H](C)CC)[C@@H](C)O)C(N)=O [compound 318]
[1]; CRF1R EC50
  EC50: 0.135 µM
[1]
  Emax: 92.8%
[2]
  EC50: 0.00995 µM
  Emax: 95.4%

## CC[C@H](C)[C@H](NC(=O)[C@@H](NC(=O)[C@H](CC(=O)O)NC(=O)[C@H](CC(C)C)NC(=O)[C@H](CC(C)C)NC(=O)[C@H](CC(C)C)NC(=O)[C@H](CCCNC(=N)N)NC(=O)[C@H](CC(N)=O)NC(=O)[C@H](CC(N)=O)NC(=O)[C@H](C)NC(=O)[C@H](C)NC(=O)[C@H](CCC(N)=O)NC(=O)[C@H](CCC(N)=O)NC(=O)[C@H](CCCCN)NC(=O)[C@H](CCC(=O)O)NC(=O)[C@H](CCCCN)NC(=O)[C@H](CCC(=O)O)NC(=O)[C@H](CCC(N)=O)NC(=O)[C@H](CCCCN)NC(=O)[C@H](CCC(=O)O)NC(=O)[C@@H](NC(=O)[C@H](CCC(=O)O)NC(=O)[C@@H](NC(=O)[C@H](CCSC)NC(=O)[C@H](CCCCN)NC(=O)[C@H](CCCNC(=N)N)NC(=O)[C@H](CC(C)C)NC(=O)[C@H](CC(C)C)NC(=O)[C@H](CC(C)C)NC(=O)[C@H](CCC(N)=O)NC(=O)[C@@H]1CCCN1C(=O)[C@H](CC(C)C)NC(=O)[C@H](CC(=O)O)NC(=O)[C@@H](NC(=O)[C@H](CO)NC(=O)[C@@H](NC(=O)[C@@H]1CCCN1C(=O)[C@@H]1CCCN1C(=O)CNC(=O)[C@@H]1CCC(=O)N1)[C@@H](C)CC)[C@@H](C)CC)[C@@H](C)CC)[C@@H](C)CC)[C@@H](C)O)C(N)=O [compound 196]
[1]
  Emax: 96%
[2]
  Emax: 97%

## CC[C@H](C)[C@H](NC(=O)[C@@H](NC(=O)[C@H](CC(=O)O)NC(=O)[C@H](CC(C)C)NC(=O)[C@H](CC(C)C)NC(=O)[C@H](CC(C)C)NC(=O)[C@H](CCCNC(=N)N)NC(=O)[C@H](CC(N)=O)NC(=O)[C@H](CC(N)=O)NC(=O)[C@H](C)NC(=O)[C@H](C)NC(=O)[C@H](CCC(N)=O)NC(=O)[C@H](CCC(N)=O)NC(=O)[C@H](CCCCN)NC(=O)[C@H](CCC(=O)O)NC(=O)[C@H](CCCCN)NC(=O)[C@H](CCC(=O)O)NC(=O)[C@H](CCC(N)=O)NC(=O)[C@H](CCCCN)NC(=O)[C@H](CCC(=O)O)NC(=O)[C@@H](NC(=O)[C@H](CCC(=O)O)NC(=O)[C@@H](NC(=O)[C@H](CCSC)NC(=O)[C@H](CCCCN)NC(=O)[C@H](CCCNC(=N)N)NC(=O)[C@H](CC(C)C)NC(=O)[C@H](CC(C)C)NC(=O)[C@H](Cc1c[nH]cn1)NC(=O)[C@H](CCC(N)=O)NC(=O)[C@@H]1CCCN1C(=O)[C@H](CC(C)C)NC(=O)[C@H](CC(=O)O)NC(=O)[C@@H](NC(=O)[C@H](CO)NC(=O)[C@@H](NC(=O)[C@@H]1CCCN1C(=O)[C@@H]1CCCN1C(=O)CNC(=O)[C@@H]1CCC(=O)N1)[C@@H](C)CC)[C@@H](C)CC)[C@@H](C)CC)[C@@H](C)CC)[C@@H](C)O)C(N)=O [compound 207]
[1]
  Emax: 88%
[2]
  Emax: 96%

## CC[C@H](C)[C@H](NC(=O)[C@@H](NC(=O)[C@H](C)NC(=O)[C@H](CC(C)C)NC(=O)[C@H](CC(C)C)NC(=O)[C@H](CC(C)C)NC(=O)[C@H](C)NC(=O)[C@H](CC(N)=O)NC(=O)[C@H](CC(N)=O)NC(=O)[C@H](C)NC(=O)[C@H](C)NC(=O)[C@H](CCC(N)=O)NC(=O)[C@H](CCC(N)=O)NC(=O)[C@H](CCCCN)NC(=O)[C@H](CCC(=O)O)NC(=O)[C@H](CCCCN)NC(=O)[C@H](CCC(=O)O)NC(=O)[C@H](CCC(N)=O)NC(=O)[C@H](CCCCN)NC(=O)[C@H](CCC(=O)O)NC(=O)[C@@H](NC(=O)[C@H](CCC(=O)O)NC(=O)[C@@H](NC(=O)[C@H](CCSC)NC(=O)[C@H](CCCCN)NC(=O)[C@H](CCCNC(=N)N)NC(=O)[C@H](CC(C)C)NC(=O)[C@H](CC(C)C)NC(=O)[C@H](Cc1ccc(O)cc1)NC(=O)[C@H](Cc1ccc(O)cc1)NC(=O)[C@@H]1CCCN1C(=O)[C@H](CC(C)C)NC(=O)[C@H](CC(=O)O)NC(=O)[C@@H](NC(=O)[C@H](CO)NC(=O)[C@@H](NC(=O)[C@@H]1CCCN1C(=O)[C@@H]1CCCN1C(=O)CNC(=O)[C@@H]1CCC(=O)N1)[C@@H](C)CC)[C@@H](C)CC)[C@@H](C)CC)[C@@H](C)CC)[C@@H](C)O)C(N)=O [compound 225]
[1]
  Emax: 97%
[2]
  Emax: 89%

## CC[C@H](C)[C@H](NC(=O)[C@@H](NC(=O)[C@H](CC(=O)O)NC(=O)[C@H](CC(C)C)NC(=O)[C@H](CC(C)C)NC(=O)[C@H](CC(C)C)NC(=O)[C@H](CCCNC(=N)N)NC(=O)[C@H](CC(N)=O)NC(=O)[C@H](CC(N)=O)NC(=O)[C@H](C)NC(=O)[C@H](C)NC(=O)[C@H](CCC(N)=O)NC(=O)[C@H](CCC(N)=O)NC(=O)[C@H](CCCCN)NC(=O)[C@H](CCC(=O)O)NC(=O)[C@H](CCCCN)NC(=O)[C@H](CCC(=O)O)NC(=O)[C@H](CCC(N)=O)NC(=O)[C@H](CCCCN)NC(=O)[C@H](CCC(=O)O)NC(=O)[C@@H](NC(=O)[C@H](CCC(=O)O)NC(=O)[C@@H](NC(=O)[C@H](CCSC)NC(=O)[C@H](CCCCN)NC(=O)[C@H](CCCNC(=N)N)NC(=O)[C@H](CC(C)C)NC(=O)[C@H](CC(C)C)NC(=O)[C@@H](NC(=O)[C@H](Cc1ccccc1)NC(=O)[C@@H]1CCCN1C(=O)[C@H](CC(C)C)NC(=O)[C@H](CC(=O)O)NC(=O)[C@@H](NC(=O)[C@H](CO)NC(=O)[C@@H](NC(=O)[C@@H]1CCCN1C(=O)[C@@H]1CCCN1C(=O)CNC(=O)[C@@H]1CCC(=O)N1)[C@@H](C)CC)[C@@H](C)CC)C(C)C)[C@@H](C)CC)[C@@H](C)CC)[C@@H](C)O)C(N)=O [compound 190]
[1]
  Emax: 9%
[2]
  Emax: 31%

## CC[C@H](C)[C@H](NC(=O)[C@@H](NC(=O)[C@H](C)NC(=O)[C@H](CC(C)C)NC(=O)[C@H](CC(C)C)NC(=O)[C@H](CC(C)C)NC(=O)[C@H](C)NC(=O)[C@H](CC(N)=O)NC(=O)[C@H](CC(N)=O)NC(=O)[C@H](C)NC(=O)[C@H](C)NC(=O)[C@H](CCC(N)=O)NC(=O)[C@H](CCC(N)=O)NC(=O)[C@H](CCCCN)NC(=O)[C@H](CCC(=O)O)NC(=O)[C@H](CCCCN)NC(=O)[C@H](CCC(=O)O)NC(=O)[C@H](CCC(N)=O)NC(=O)[C@H](CCCCN)NC(=O)[C@H](CCC(=O)O)NC(=O)[C@@H](NC(=O)[C@H](CCC(=O)O)NC(=O)[C@@H](NC(=O)[C@H](CCSC)NC(=O)[C@H](CCCCN)NC(=O)[C@H](CCCNC(=N)N)NC(=O)[C@H](CC(C)C)NC(=O)[C@H](CC(C)C)NC(=O)[C@H](Cc1c[nH]cn1)NC(=O)[C@H](Cc1ccccc1)NC(=O)[C@@H]1CCCN1C(=O)[C@H](CC(C)C)NC(=O)[C@H](CC(=O)O)NC(=O)[C@@H](NC(=O)[C@H](CO)NC(=O)[C@@H](NC(=O)[C@@H]1CCCN1C(=O)[C@@H]1CCCN1C(=O)CNC(=O)[C@@H]1CCC(=O)N1)[C@@H](C)CC)[C@@H](C)CC)[C@@H](C)CC)[C@@H](C)CC)[C@@H](C)O)C(N)=O [compound 229]
[1]
  Emax: 100%
[2]
  Emax: 100%

## CC[C@H](C)[C@H](NC(=O)[C@H](CCC(=O)O)NC(=O)[C@@H](NC(=O)[C@H](CCSC)NC(=O)[C@H](CCCCN)NC(=O)[C@H](CCCNC(=N)N)NC(=O)[C@H](CC(C)C)NC(=O)[C@H](CC(C)C)NC(=O)[C@H](CCC(N)=O)NC(=O)[C@H](CC(C)C)NC(=O)[C@@H]1CCCN1C(=O)[C@H](CC(C)C)NC(=O)[C@H](CC(=O)O)NC(=O)[C@@H](NC(=O)[C@H](CO)NC(=O)[C@@H](NC(=O)[C@@H]1CCCN1C(=O)[C@@H]1CCCN1C(=O)CNC(=O)[C@@H]1CCC(=O)N1)[C@@H](C)CC)[C@@H](C)CC)[C@@H](C)CC)C(=O)N[C@@H](CCC(=O)O)C(=O)N[C@@H](CCCCN)C(=O)N[C@@H](CCC(N)=O)C(=O)N[C@@H](CCC(=O)O)C(=O)N[C@@H](CCCCN)C(=O)N[C@@H](CCC(=O)O)C(=O)N[C@@H](CCCCN)C(=O)N[C@@H](CCC(N)=O)C(=O)N[C@@H](CCC(N)=O)C(=O)N[C@@H](C)C(=O)N[C@H](C(=O)N[C@H](C(=O)N[C@@H](CC(N)=O)C(=O)N[C@@H](C)C(=O)N[C@@H](CCCNC(=N)N)C(=O)N[C@@H](CC(C)C)C(=O)N[C@@H](CC(C)C)C(=O)N[C@@H](CC(=O)O)C(=O)N[C@H](C(=O)N[C@H](C(N)=O)C(C)C)[C@@H](C)O)[C@@H](C)O)[C@@H](C)O [compound 246]
[1]
  Emax: 33%
[2]
  Emax: 100%
